Assay results: patent US7632952B2, “Benzothiazoles and the use thereof as medicaments” (Aventis Pharma S.A., priority 2004, dated 2009)

Amino acid sequences for entries named in this document (tags omitted).
UniProt P11802, whole entry: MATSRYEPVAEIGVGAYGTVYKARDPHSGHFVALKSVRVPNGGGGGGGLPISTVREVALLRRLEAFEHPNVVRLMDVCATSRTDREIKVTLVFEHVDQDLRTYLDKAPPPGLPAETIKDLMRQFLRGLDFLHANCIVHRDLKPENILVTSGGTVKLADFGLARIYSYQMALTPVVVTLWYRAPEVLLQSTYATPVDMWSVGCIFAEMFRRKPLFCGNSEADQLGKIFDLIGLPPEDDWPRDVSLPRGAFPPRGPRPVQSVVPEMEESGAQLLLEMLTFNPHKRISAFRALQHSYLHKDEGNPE
UniProt P24385, whole entry partner: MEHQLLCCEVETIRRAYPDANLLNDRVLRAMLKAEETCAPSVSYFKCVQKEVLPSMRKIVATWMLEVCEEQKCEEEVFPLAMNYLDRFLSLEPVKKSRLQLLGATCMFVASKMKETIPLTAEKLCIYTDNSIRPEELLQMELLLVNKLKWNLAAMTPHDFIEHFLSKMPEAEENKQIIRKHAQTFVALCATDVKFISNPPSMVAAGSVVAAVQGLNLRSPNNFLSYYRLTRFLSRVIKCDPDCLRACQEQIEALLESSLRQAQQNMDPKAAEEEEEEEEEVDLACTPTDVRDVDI

Molecular target: CDK4/cyclin D1 (Homo sapiens, UniProt P11802)
Assay: CDK4/cyclin D1 Flashplate test in 96-well format
Conditions: read-out: CDK4 IC50; tested form: hydrochloride
Method: 2. CDK4/cyclin D1 Protocol:
Purification of the CDK4-HA/cyclin D1-(His)6 Complex by IMAC (Immobilized Metal Affinity Chromatography):
Two recombinant baculoviruses bearing the human sequences coding, respectively, for CDK4-HA (C-terminal fusion with the hemaglutinin tag) and for cyclin D1-(His)6 are used to coinfect insect Sf9 cells. Sixty hours after the start of the coinfection, the cells are harvested by centrifugation and then frozen at −20° C. until the time of use. After thawing in buffer A (HEPES 200 mM pH 7.0, NaCl 50 mM, MgCl22 mM, imidazole 25 mM, TCEP 1 mM, glycerol 10% (p/v), NaF 1 mM, Na3VO4 1 mM), stirring for 1 hour at 4° C. and centrifugation, the complex present in the lysis supernatant is purified by affinity chromatography on nickel (IMAC) and stored at −80° C.
CDK4/cyclin D1 Flashplate Test in 96-Well Format
A test in 96-well “Flashplate” plates coated with streptavidin is used to evaluate the inhibition of the CDK4/cyclin D1 kinase complex by the products of the invention. […]
After addition of all the reagents, the test plate is incubated at 30° C. with orbital stirring at 650 rpm. […] The incorporation of ^33P into the substrate peptide is quantified by scintillation counting using a Packard Topcount.NXT machine. […]

NCCCCCCCC(=O)Nc1nc2ccc(OS(=O)(=O)c3ccc(NCCCn4ccnc4)cc3)cc2s1 gave an IC50 of 609 nM.
